Values of other authors as cited in US20220323445A1, “REDUCING IMMUNOGENICITY TO PEGLOTICASE” (Horizon Therapeutics Ireland DAC, priority 2020, published 2022).

Settings: prophylaxis of gout; cited from earlier work

Structure (SMILES): COc1cc2c(c(OC)c1OC)-c1ccc(OC)c(=O)cc1[C@@H](NC(C)=O)CC2 [colchicine]
- diarrhea: 23%
